Results from patent publication US10179769B2, “Histone demethylase inhibitors” (CELGENE QUANTICEL RESEARCH, INC., priority 2012, dated 2019).

system: KYSE-150 esophageal carcinoma cell line; test: Cell proliferation assay, BrdU incorporation ELISA; type: cell-based, human; settings: Homo sapiens; KYSE-150, BrdU incorporation after 168 hr compound incubation; read-out: Cellular IC50

SMILES	IC50
COC(=O)c1ccncc1NCc1ccc(Cl)c(Cl)c1 [Preparation 14A, methyl 3-[(3,4-dichlorobenzyl)amino]pyridine-4-carboxylate]	1 to 10 µM
COC(=O)c1ccncc1NCc1ccc(Br)cc1 [Preparation 25A, methyl 3-[(4-bromobenzyl)amino]pyridine-4-carboxylate]	> 10 µM
N#Cc1ccc(Cl)cc1C1CC1 [Preparation 26A, 4-chloro-2-cyclopropyl-benzonitrile]	1 to 10 µM
Cc1cccc(C#N)c1C1CC1 [Preparation 30A, 2-cyclopropyl-3-methyl-benzonitrile]	> 10 µM
COC(=O)c1ccncc1NCc1cccc(C(F)(F)F)c1 [Preparation 32A, methyl 3-{[3-(trifluoromethyl)benzyl]amino}pyridine-4-carboxylate]	> 10 µM
COC(=O)c1ccncc1NCC12CC3CC(CC(C3)C1)C2 [Preparation 42A, methyl 3-[(adamantan-1-ylmethyl)amino]pyridine-4-carboxylate]	1 to 10 µM
